# According to patent US20150258217A1, “Methods of Synthesizing and Using Peg-Like Fluorochromes” (THE GENERAL HOSPITAL CORPORATION, priority 2012, published 2015):
# Assay: PN and peptide size (volume, diameter) by FPLC gel filtration (Superdex 200, globular protein standards)
# Assay type: physicochemical
# Conditions: Table 5; globular protein equivalent molecular weight
# Experimental: DOTA-Lys-Cys(IR783)-NH2 is then dissolved in DMSO, with 2 equivalents of an NHS ester of PEG and 6 equivalents of DIPEA. The reaction was at room temperature for 5 days. Product was purified by reverse phase HPLC separation. Product molecular weight was by matrix-assisted laser desorption ionization time-of-flight mass spectrometry (MALDI-TOF MS), with product molecular volume by size exclusion FPLC using globular protein standards (GE Healthcare life science AKTApurifier 10).
# The mass spec of low molecular weights (MW) were obtained by MS-ESI Micromass (Waters) and high MW molecules were determined through MALDI-TOF analyses at the Tufts University Core Facility. […] Probe size (volume) was determined by FPLC using an ÄKTA Purifier 10 and Superdex™ 200 10/300GL column (GE Healthcare) with a running buffer of 0.05 M sodium phosphate, 0.15 M NaCl (0.1% Tween, pH 7.2) and flow rate of 0.8 ml/min. […]
# The column was calibrated with globular protein standards, and globular protein equivalent molecular weights (in kDa) were obtained (Table 5, column 5). […] Using PEG's of 5 kDa and 30 kDa, selected for their low polydispersity, PN's were synthesized using IR-783, Cy3 and Fluorescein (see FIG. 22a) and their sizes determined (see FIGS. 23a, 23b, 23c). […] For reference, the diameter of a 67 kDa albumin determined by this method was 5.4 nm.
substance,measurement,value
(DOTA)Lys-Cys(Fluorescein) [(DOTA)Lys-Cys(FI)],Volume FPLC,0.6 kDa
